Legend:
[1] = target: human GABAA α2β2γ1 receptor (Homo sapiens (Human), UniProt P47869+Q8N1C3); assay: Radioligand binding assay, competition for [3H]RO7239181, γ1-containing GABAA subtypes; settings: read-out: Ki h-GABAA α2β2γ1; Table 3, reference compounds and examples
[2] = target: human GABAA α1β3γ2 receptor (Homo sapiens (Human), UniProt P14867+P18507); assay: Radioligand binding assay, competition for [3H]Flumazenil, γ2-containing GABAA subtypes

## Cc1nnc2n1-c1sc3c(c1C(c1ccccc1Cl)=NC2)CCCC3
[1]
  Ki: 52.6 nM
[2]; Ki α1β3γ2 (nM)/Ki α2β2γ1 (nM), Table 3
  γ2/γ1 Selectivity Ratio: 0.922
[2]; Log[Ki α1β3γ2 (nM)/Ki α2β2γ1 (nM)], Table 3
  LogSel: −0.035
[2]; read-out: Ki h-GABAA α1β3γ2, Table 3, reference compounds and examples
  Ki: 48.5 nM
